Key:
Type in all cases: biochemical
tgDHFR = target: T1, tgDHFR (Toxoplasma gondii, UniProt Q07422); settings: comparator 8
T1 sequence (Q07422 1-610): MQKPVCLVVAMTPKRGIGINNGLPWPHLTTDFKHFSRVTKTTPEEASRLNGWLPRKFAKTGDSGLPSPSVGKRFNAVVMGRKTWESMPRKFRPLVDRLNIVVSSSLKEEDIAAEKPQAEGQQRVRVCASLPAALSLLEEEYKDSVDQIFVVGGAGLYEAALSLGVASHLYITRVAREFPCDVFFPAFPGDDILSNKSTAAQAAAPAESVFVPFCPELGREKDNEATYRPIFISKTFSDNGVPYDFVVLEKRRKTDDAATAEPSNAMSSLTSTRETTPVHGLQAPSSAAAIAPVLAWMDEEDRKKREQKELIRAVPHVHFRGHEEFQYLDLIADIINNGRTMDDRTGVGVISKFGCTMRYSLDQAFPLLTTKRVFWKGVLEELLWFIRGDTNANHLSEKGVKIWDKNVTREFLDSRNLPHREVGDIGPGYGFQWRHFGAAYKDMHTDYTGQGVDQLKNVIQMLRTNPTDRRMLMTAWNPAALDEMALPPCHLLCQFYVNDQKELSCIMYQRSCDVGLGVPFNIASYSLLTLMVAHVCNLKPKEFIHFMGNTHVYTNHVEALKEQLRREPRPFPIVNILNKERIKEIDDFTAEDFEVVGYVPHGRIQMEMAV

pcDHFR = target: T2, pcDHFR (Pneumocystis carinii, UniProt P16184); assay: Inhibition of P. carinii DHFR; settings: comparator 8
T2 sequence (P16184 1-206): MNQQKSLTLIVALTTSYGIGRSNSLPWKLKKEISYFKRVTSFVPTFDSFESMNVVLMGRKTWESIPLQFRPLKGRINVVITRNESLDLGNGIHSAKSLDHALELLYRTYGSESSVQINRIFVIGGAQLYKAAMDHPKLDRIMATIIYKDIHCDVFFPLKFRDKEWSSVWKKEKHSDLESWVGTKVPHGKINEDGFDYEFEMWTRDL

maDHFR = target: T3, maDHFR (Mycobacterium avium, UniProt O30463); assay: Inhibition of M. avium DHFR
T3 sequence (O30463 1-181): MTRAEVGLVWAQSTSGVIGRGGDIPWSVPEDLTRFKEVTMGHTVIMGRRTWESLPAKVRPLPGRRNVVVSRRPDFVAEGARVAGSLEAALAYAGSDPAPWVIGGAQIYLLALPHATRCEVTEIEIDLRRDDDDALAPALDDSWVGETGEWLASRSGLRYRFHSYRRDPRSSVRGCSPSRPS

## CCCN(Cc1cc(OC)ccc1OC)c1ccc2nc(N)nc(N)c2c1 [Compound 10, 2,4-Diamino-6-[N-(2,5-dimethoxybenzyl)-N-propylamino]quinazoline]
tgDHFR
  Fold decrease in potency against tgDHFR compared to 8: 3 fold
pcDHFR
  Fold less potent against pcDHFR than 8: 4 fold
maDHFR
  Selectivity ratio rl/ma (IC50 rlDHFR/IC50 maDHFR): 1.6
maDHFR; comparator 8
  Fold decrease in potency against maDHFR compared to 8: 3 fold
  Fold less selective for maDHFR versus rlDHFR compared to 8: 3 fold

— paper PMC3885247 (Journal of medicinal chemistry, 2008)
